Experimental data: PMC11273936, “The Antimicrobial Peptide Capitellacin: Chemical Synthesis of Analogues to Probe the Role of Disulphide Bridges and Their Replacement with Vinyl Sulphides” (Antibiotics, 2024)

Assays:
[1] = Analytical RP-HPLC retention time as measure of hydrophobicity; assay type: physicochemical; conditions: Supplementary Table S2; Phenomenex Luna C18 (100Å, 5 µm, 4.6 mm x 250 mm), linear gradient 5%B to 45%B over 40 min (ca. 1%B/min) at 1 mL/min
[2] = system: human red blood cells (hRBCs); conditions: result in words; cited from earlier work

**Q.** Which “tR (RP-HPLC retention time, hydrophobicity)” value [1] does the source give for `CC[C@H](C)[C@@H]1NC(=O)[C@@H](NC(=O)[C@@H](NC(=O)[C@H](CCCNC(=N)N)NC(=O)[C@@H]2CCCN2C(=O)[C@@H](N)CO)C(C)C)CSSC[C@@H](C(=O)N[C@@H](Cc2c[nH]c3ccccc23)C(=O)NCC(=O)O)NC(=O)[C@H](CCCNC(=N)N)NC(=O)[C@H](CCCNC(=N)N)NC(=O)[C@H](Cc2ccc(O)cc2)NC(=O)[C@@H]2CSSC[C@H](NC(=O)[C@H](C(C)C)NC(=O)[C@H](CCCNC(=N)N)NC1=O)C(=O)N[C@@H](CCCNC(=N)N)C(=O)N[C@@H](CC(N)=O)C(=O)NCC(=O)N[C@@H](C(C)C)C(=O)N2` here?
**A.** 26.7 min

**Q.** What about the “lysis of human red blood cells (hRBCs)” value [2] of the same molecule?
**A.** minimal lysis

**Q.** With `CC[C@@H](C)[C@H]1NC(=O)[C@H](NC(=O)[C@H](NC(=O)[C@@H](CCCNC(=N)N)NC(=O)[C@H]2CCCN2C(=O)[C@H](N)CO)C(C)C)CSSC[C@H](C(=O)N[C@H](Cc2c[nH]c3ccccc23)C(=O)NCC(=O)O)NC(=O)[C@@H](CCCNC(=N)N)NC(=O)[C@@H](CCCNC(=N)N)NC(=O)[C@@H](Cc2ccc(O)cc2)NC(=O)[C@H]2CSSC[C@@H](NC(=O)[C@@H](C(C)C)NC(=O)[C@@H](CCCNC(=N)N)NC1=O)C(=O)N[C@H](CCCNC(=N)N)C(=O)N[C@H](CC(N)=O)C(=O)NCC(=O)N[C@H](C(C)C)C(=O)N2` as the molecule, how does the “tR (RP-HPLC retention time, hydrophobicity)” value [1] read?
**A.** 26.7 min
